1 substance from publication PMC7547737 can be followed below.

Protein sequences, listed by entry. Tags and fused reporters are not part of them.
UniProt P31749, whole entry T308D: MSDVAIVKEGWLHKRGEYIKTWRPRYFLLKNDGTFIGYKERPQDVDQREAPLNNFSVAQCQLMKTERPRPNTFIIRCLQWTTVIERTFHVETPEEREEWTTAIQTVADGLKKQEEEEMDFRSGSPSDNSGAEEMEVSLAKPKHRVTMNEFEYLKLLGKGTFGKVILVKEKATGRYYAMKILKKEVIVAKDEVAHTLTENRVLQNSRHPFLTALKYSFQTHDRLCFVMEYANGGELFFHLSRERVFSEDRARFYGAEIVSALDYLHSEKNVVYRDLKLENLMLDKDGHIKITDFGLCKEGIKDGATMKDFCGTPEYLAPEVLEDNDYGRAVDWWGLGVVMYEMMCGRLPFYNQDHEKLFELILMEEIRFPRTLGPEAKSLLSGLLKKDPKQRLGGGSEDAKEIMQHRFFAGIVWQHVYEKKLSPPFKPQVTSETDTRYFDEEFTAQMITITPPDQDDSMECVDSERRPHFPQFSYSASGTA
UniProt P31749, whole entry T308A: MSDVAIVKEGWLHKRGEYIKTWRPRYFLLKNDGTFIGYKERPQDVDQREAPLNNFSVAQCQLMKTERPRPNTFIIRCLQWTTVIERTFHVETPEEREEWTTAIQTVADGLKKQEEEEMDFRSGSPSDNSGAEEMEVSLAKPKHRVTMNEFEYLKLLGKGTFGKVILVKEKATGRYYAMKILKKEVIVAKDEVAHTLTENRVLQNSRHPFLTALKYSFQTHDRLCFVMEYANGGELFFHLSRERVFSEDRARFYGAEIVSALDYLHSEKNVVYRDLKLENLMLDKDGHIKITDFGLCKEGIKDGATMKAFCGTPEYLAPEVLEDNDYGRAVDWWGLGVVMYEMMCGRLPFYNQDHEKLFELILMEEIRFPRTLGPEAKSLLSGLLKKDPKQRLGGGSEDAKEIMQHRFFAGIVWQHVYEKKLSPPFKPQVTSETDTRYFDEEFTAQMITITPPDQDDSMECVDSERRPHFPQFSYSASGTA
UniProt P31749, whole entry P318A: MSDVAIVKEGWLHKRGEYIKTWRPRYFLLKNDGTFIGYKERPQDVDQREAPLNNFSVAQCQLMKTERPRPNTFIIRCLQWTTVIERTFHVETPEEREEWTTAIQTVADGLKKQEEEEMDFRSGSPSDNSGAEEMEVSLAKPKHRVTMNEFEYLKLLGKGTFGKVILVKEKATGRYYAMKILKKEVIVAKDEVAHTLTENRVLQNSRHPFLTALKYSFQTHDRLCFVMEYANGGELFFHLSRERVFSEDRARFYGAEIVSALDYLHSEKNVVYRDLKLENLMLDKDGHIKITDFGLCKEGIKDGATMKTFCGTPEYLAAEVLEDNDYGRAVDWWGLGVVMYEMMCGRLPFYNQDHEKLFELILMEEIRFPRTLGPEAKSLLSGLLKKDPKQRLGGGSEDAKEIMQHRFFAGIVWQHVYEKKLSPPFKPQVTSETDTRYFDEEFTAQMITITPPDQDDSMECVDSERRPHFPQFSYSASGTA
UniProt P31749, whole entry P313A/P318A: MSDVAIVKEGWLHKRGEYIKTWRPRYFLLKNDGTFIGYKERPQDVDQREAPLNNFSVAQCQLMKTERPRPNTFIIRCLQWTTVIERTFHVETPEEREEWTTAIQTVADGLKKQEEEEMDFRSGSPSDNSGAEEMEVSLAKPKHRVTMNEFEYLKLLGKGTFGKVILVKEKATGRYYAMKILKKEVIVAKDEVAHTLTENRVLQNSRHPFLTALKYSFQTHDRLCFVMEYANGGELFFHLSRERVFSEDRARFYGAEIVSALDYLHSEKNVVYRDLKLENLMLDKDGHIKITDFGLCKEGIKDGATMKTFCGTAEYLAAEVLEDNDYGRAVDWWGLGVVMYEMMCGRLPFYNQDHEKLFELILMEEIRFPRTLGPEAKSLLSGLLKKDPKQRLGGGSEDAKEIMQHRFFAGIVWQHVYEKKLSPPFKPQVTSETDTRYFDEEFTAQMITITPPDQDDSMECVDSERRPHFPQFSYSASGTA
UniProt P62937, whole entry: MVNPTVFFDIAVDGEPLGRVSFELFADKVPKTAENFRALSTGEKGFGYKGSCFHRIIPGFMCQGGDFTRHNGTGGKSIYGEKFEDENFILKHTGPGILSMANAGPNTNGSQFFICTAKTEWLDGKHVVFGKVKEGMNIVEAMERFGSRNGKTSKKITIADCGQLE

In assay [1] the target is phospho-Thr308 AKT (human (endogenous in SK-Br3)) (UniProt P31749). The assay is described as follows: co-IP; SK-Br3 cells untreated, or treated with TZ or TZ/U0126 for 20 min, cross-linked with DSP; lysate precipitated with anti-phospho-Thr308 AKT antibody on protein G dynabeads; Western blot, amounts normalised on the precipitated protein and on untreated cells.
Assay [2] deals with FLAG-AKT^T308D (UniProt P31749). The experiment in a line: co-IP; SK-Br3 cells transfected with FLAG-tagged AKT constructs, starved with U0126, treated with TZ 20 min, cross-linked with DSP; anti-FLAG magnetic beads, 3 h at 4 °C; Western blot, amounts normalised on precipitated protein and input.
Assay [3] addresses FLAG-AKT^T308A (UniProt P31749). The description is as above.
Assay [4] concerns the target FLAG-AKT^P318A (UniProt P31749). The description is as above.
For assay [5], the target named is FLAG-AKT^P313A/P318A (UniProt P31749). The assay is described as above.

Take “peptidyl-prolyl cis–trans isomerase A (Cyclophilin A) (from UniProt P62937 1-165) (enzyme)”: the fold co-precipitated, TZ-treated against untreated cells in assay [1] was determined as 2 fold. Further, the percent co-precipitated against wt AKT in assay [2] and in assay [3] was 50% throughout. Further, the percent reduction of the interaction against wt AKT in assay [4] and in assay [5] was 60% throughout.
